Test results published in ChEMBL document CHEMBL1938272 (Bioorg Med Chem, 2012).

Chains of the proteins cited; added tags and fusions are not shown.
UniProt Q64669, whole entry: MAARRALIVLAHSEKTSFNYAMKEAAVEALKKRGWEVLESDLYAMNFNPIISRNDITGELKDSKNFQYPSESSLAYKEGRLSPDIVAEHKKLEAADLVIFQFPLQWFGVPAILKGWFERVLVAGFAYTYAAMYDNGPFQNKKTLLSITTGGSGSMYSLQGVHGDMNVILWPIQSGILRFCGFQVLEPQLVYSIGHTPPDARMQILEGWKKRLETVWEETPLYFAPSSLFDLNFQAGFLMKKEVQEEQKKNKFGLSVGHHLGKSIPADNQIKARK

Experiments:
[1] = biological target: NAD(P)H dehydrogenase [quinone] 1 (Mus musculus) (UniProt Q64669); assay: Induction of QR1 activity in mouse TAOc1 mutant Hepa cells using MTT as substrate assessed as induction ratio by spectrophotometry relative to control; assay type: cell-based
[2] = biological target: NAD(P)H dehydrogenase [quinone] 1 (Mus musculus) (UniProt Q64669); assay: Induction of QR1 activity in mouse BPrc1 cells using MTT as substrate assessed as induction ratio by spectrophotometry relative to control; assay type: cell-based
[3] = Ratio of trans-resveratrol IC50 to compound IC50 for NF-kappaB

Structure (SMILES) | Ratio [1] | Ratio [2] | Ratio IC50 [3]
Brc1ccccc1-c1nsc(-c2ccccc2Br)n1 | 1.6 | 0.5 | –
Fc1cccc(-c2nsc(-c3cccc(F)c3)n2)c1 | 1.4 | 0.9 | –
Fc1ccc(-c2nsc(-c3ccc(F)cc3)n2)cc1 | 1.1 | 0.6 | –
Fc1ccccc1-c1nsc(-c2ccccc2F)n1 | 1 | 1.7 | –
Ic1ccccc1-c1nsc(-c2ccccc2I)n1 | 4 | 3.9 | –
c1ccc2cc(-c3nsc(-c4ccc5ccccc5c4)n3)ccc2c1 | 0.9 | 0.9 | –
FC(F)(F)c1ccccc1-c1nsc(-c2ccccc2C(F)(F)F)n1 | 0.8 | 0.7 | –
Clc1ccccc1-c1nsc(-c2ccccc2Cl)n1 | 2 | 2.8 | –
c1ccc(-c2nsc(-c3ccccc3)n2)cc1 | 2.2 | 2 | –
FC(F)(F)c1ccc(-c2nsc(-c3ccc(C(F)(F)F)cc3)n2)cc1 | 1.2 | 0.8 | –
Clc1ccc(Cl)c(-c2nsc(-c3cc(Cl)ccc3Cl)n2)c1 | 2.2 | 2.4 | –
Cc1cccc(-c2nsc(-c3cccc(C)c3)n2)c1 | 0.8 | 0.6 | 1
Cc1cc(Br)ccc1-c1nsc(-c2ccc(Br)cc2C)n1 | 1.7 | 1.2 | –
Oc1cccc(-c2nsc(-c3cccc(O)c3)n2)c1 | 1.2 | 1.4 | –
Clc1ccc(-c2nsc(-c3ccc(Cl)cc3)n2)cc1 | 1 | 0.7 | –
Brc1ccc(-c2nsc(-c3ccc(Br)cc3)n2)cc1 | 1.1 | 0.9 | –
Clc1ccc(-c2nsc(-c3ccc(Cl)cc3Cl)n2)c(Cl)c1 | 1.2 | 1.4 | –
